# PubChem BioAssay AID1875 (Broad Institute, 2009)
# This is one part of the list. Active and inactive are the calls of the source.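 Rule for the calls: active = lowest replicate activity score at least 50, where 100 means six control SD above control mean; inconclusive = lowest score under 50 but half or more replicates reach 50; inactive = the rest.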
# Test: polyadenylation inhibitors in yeast reporter cells, primary screen, luminescence, S. cerevisiae (AID 1875);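 note: yeast exposed to compound for 9 h at 30 °C; higher score means more reporter readthrough which indicates perturbed polyadenylation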
# Conditions: S. cerevisiae SKY197-pL101 polyadenylation reporter, beta-gal luminescence; at 12 µM; stronger effect = higher value; efflux-impaired pdr1/pdr3 knockout yeast; score 100 = 6 SD above DMSO
row,Compound,activity score
1,CCOP(=O)(Nc1ccc(C)cn1)OCC,inactive: -12.6%
2,CN(CCCl)Cc1cc(Cl)c(NC2=NCCN2)c(Cl)c1,inactive: 0.167%
3,CCC1=CC2Cc3nc4ccc(Cl)cc4c(N)c3C(C1)C2 (stereo not given),inactive: 8.12%
4,O=P1(Nc2ccccn2)COc2ccccc2OC1,inactive: 4.09%
5,O=[N+]([O-])c1cc([N+](=O)[O-])c(-n2nnc3ccccc32)c([N+](=O)[O-])c1,inactive: -5.99%
6,CCOP(=O)(NC(=NC(C)c1ccccc1)NC(C)c1ccccc1)OCC (stereo not given),inactive: -9.54%
7,Clc1n[nH]nc1-c1nn[nH][15n]1,inactive: 12.1%
8,COc1ccccc1CNC(=O)COC(=O)C(O)(c1ccccc1)c1ccccc1,inactive: -6.96%
9,O=[N+]([O-])c1cc([N+](=O)[O-])c(-c2cnn(-c3ccccc3)c2)c([N+](=O)[O-])c1,inactive: -46.2%
10,O=[As](O)(c1ccccc1Br)c1ccccc1Br,inactive: 1.89%
11,CC1(CBr)Cn2c(nc3ccccc3c2=O)S1 (stereo not given),inactive: -4.82%
12,CN(C(=O)Cc1ccc(Cl)c(Cl)c1)[C@@H]1CCCC[C@H]1N1CCCC1,inactive: -5.47%
13,CC(C)/C=N\N=C(\N)N[N+](=O)[O-],inactive: 10.7%
14,COc1cc(C2NCCC3(OCCO3)C2(C)C)cc(OC)c1OC.O=[N+]([O-])c1cc([N+](=O)[O-])c(O)c([N+](=O)[O-])c1 (stereo not given),inactive: 2.61%
15,Cc1nn(-c2ccccc2)c2c1P(=O)(N1CCOCC1)N(C)C(c1ccccc1)=N2 (stereo not given),inactive: -4.3%
16,Cc1ccc(C(=O)OC2CN3CCC2CC3)cc1 (stereo not given),inactive: 12.3%
17,CC1CCC(C(C)C)C(OP(=O)(Nc2ccccn2)c2ccccc2)C1 (stereo not given),inactive: -0.394%
18,O=C(/C=C/c1ccccc1)OC1CN2CCC1CC2 (stereo not given),inactive: 2.54%
19,CN(C)C1(CNC(=O)c2ccc(S(C)(=O)=O)cc2)CCCCC1,inactive: -4.89%
20,O=[N+]([O-])c1cc([N+](=O)[O-])c(Nc2nnnn2CCO)c([N+](=O)[O-])c1,inactive: 3.45%

row,Compound,activity score
1,CCOC(=O)C(CC)C1=NC(C)(C)Cc2ccccc21.O=[N+]([O-])c1cc([N+](=O)[O-])c(O)c([N+](=O)[O-])c1 (stereo not given),inactive: -23.3%
2,CN1CCCCC1COC(=O)C1(O)c2ccccc2CCc2ccccc21 (stereo not given),inactive: 3.07%
3,COc1ccccc1OP(C)(=O)Nc1c(C)cccc1C (stereo not given),inactive: -1.49%
4,O=P1(Nc2ncccn2)COc2ccccc2OC1,inactive: 5.53%
5,Cc1ccc(OCC(=O)OC2CN3CCC2CC3)cc1 (stereo not given),inactive: 3.93%
6,O=[As](O)(c1cccs1)c1cccs1,inactive: -15.2%
7,CCCOc1ccc(NP(C)(=O)Oc2ccc(Cl)cc2)cc1 (stereo not given),inactive: 4.6%
8,Nc1cccc([As](=O)(O)c2ccccc2)c1,inactive: -0.576%
9,CP(=O)(Nc1ccc(SC(F)(F)F)cc1)Oc1ccccc1 (stereo not given),inactive: 0.254%
10,CS(=O)(=O)c1cc([N+](=O)[O-])c2no[n+]([O-])c2c1,inactive: 1.92%
11,O=C(O)c1cccc(Nc2c([N+](=O)[O-])cc([N+](=O)[O-])cc2[N+](=O)[O-])c1,inactive: -4.84%
12,CCOP1(=S)c2c(C)nn(CCC#N)c2N=C(c2ccccc2F)N1C (stereo not given),inactive: 1.88%
13,O=P(Nc1nccs1)(Oc1ccccc1)Oc1ccccc1,inactive: 12.1%
14,O=P(Nc1nccs1)(c1ccccc1)c1nc2ccccc2s1 (stereo not given),inactive: -4.67%
15,O=C(O)COc1ccc([As](=O)(O)O)cc1[N+](=O)[O-],inactive: 16.6%
16,Nc1ccccc1[As](=O)(O)c1ccccc1,inactive: 4.32%
17,NC(=O)Nc1ccc([As](=O)(O)O)cc1,inactive: 12.9%
18,O=[N+]([O-])c1ccc2c(c1)nnn2O,inactive: -14.2%
19,CN(C)C(=O)c1cc([N+](=O)[O-])cc2c1-c1c(cc([N+](=O)[O-])cc1[N+](=O)[O-])C2=O,inactive: -22.4%
20,CC1=NCCc2c1[nH]c1ccccc21.O=[N+]([O-])c1cc([N+](=O)[O-])c(O)c([N+](=O)[O-])c1,inactive: 10.4%

row,Compound,activity score
1,CN(C(=O)Cc1ccc(Cl)c(Cl)c1)[C@H]1CC[C@@]2(CCCO2)C[C@@H]1N1CCCC1,inactive: 3.09%
2,N#CCCN(C(=O)COC(=O)C(O)(c1ccccc1)c1ccccc1)c1ccc(F)cc1,inactive: 4.64%
3,CCOP1(=S)c2c(C)nn(CCC#N)c2N=C(c2ccc(F)cc2)N1C (stereo not given),inactive: -4.14%
4,CN(C(=O)Cc1ccccc1)[C@@H]1CC[C@]2(CCCO2)C[C@H]1N1CCCC1,inactive: -3.6%
5,O=[As](O)(O)c1cccnc1,inactive: 30.9%
6,COc1cc(C(=O)NCC2(N3CCOCC3)CCCCC2)cc(Cl)c1OC(C)C,inactive: 8.65%
7,COc1ccccc1OP(C)(=O)Nc1cccc(Br)c1 (stereo not given),inactive: 11.5%
8,CS(=O)(=O)c1ccc(Cl)c(NC(=O)COC(=O)C(O)(c2ccccc2)c2ccccc2)c1,inactive: -2.82%
9,O=C(OC1CN2CCC1CC2)c1ccc(Cl)cc1 (stereo not given),inactive: 4.5%
10,CCOC(=O)c1ccc(NP(C)(=O)Oc2cc(C)cc(C)c2)cc1 (stereo not given),inactive: -3.53%
11,Cc1cccc(OCC(=O)OC2CN3CCC2CC3)c1 (stereo not given),inactive: -7.51%
12,O=[As](O)(c1cccc(O)c1)c1cccc(O)c1,inactive: -4.69%
13,Cc1cc(C)cc(OP(C)(=O)Nc2ccc(C)cc2C)c1 (stereo not given),inactive: 3.31%
14,Cc1ccc(C)c(NP(C)(=O)Oc2ccccc2)c1 (stereo not given),inactive: -12.4%
15,CCCOP(=S)(Nc1nc(N)cc(=O)[nH]1)OCCC,inactive: 6.55%
16,Cc1cc(C)cc(OP(C)(=O)Nc2ccccn2)c1 (stereo not given),inactive: -3.45%
17,CP(=O)(Nc1cccc(Br)c1)Oc1ccccc1 (stereo not given),inactive: -13.7%
18,Cc1ccc(NCCc2c([N+](=O)[O-])cc([N+](=O)[O-])cc2[N+](=O)[O-])cc1,inactive: -31.6%
19,Nc1cccc2c([As](=O)(O)O)cccc12,inactive: -6.83%
20,CCOP(=O)(Nc1cccc2ccccc12)OCC,inactive: -2.47%
